# Data from publication PMC3794980, “Identification of Conserved and HLA Promiscuous DENV3 T-Cell Epitopes” (PLoS Neglected Tropical Diseases, 2013).
# Chains of the proteins cited; added tags and fusions are not shown. Residues count along the entry.
# UniProt P01903, 26-254: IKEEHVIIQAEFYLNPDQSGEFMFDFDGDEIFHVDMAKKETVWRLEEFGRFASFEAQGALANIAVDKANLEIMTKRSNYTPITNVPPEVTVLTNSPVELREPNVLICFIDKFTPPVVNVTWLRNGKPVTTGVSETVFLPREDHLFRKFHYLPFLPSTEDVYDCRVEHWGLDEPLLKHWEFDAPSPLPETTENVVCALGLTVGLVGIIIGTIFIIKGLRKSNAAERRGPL
# UniProt P01911, 30-266: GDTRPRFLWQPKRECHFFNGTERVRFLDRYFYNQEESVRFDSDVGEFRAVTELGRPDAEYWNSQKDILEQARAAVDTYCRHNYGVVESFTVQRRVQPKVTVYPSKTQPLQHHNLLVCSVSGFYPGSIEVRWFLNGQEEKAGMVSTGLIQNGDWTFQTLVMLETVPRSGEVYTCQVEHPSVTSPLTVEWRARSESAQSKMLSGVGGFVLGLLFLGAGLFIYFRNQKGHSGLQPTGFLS
# Entries after “also recorded” stand apart in the source; their conditions may differ.
# Assays:
# [1] = target: DRB1*1501 (Homo sapiens, UniProt P01903+P01911); assay: biochemical; type: binding
# [2] = tested on: HLA transgenic mice (A02, A24, B07, DR2, DR3 and DR4); assay: Immunogenicity screen in six HLA transgenic mice strains (summary); type: in vivo; details: IFN-γ ELISPOT in six TgM strains; Negative = none
# [3] = tested on: HLA of the TgM (A02, A24, B07, DR2, DR3, DR4); assay: HLA binding assays, summary of HLA affinity confirmed; set-up: species or system human; details: ND: non-determined
# [4] = tested on: CD8 depleted PBMCs from DR02 positive subjects; assay: IFN-γ ELISPOT, memory T-cells of HLA-DR2 positive subjects with history of DENV3 infection; type: cell-based, human; details: n = 3 subjects immune to DENV3; CD8 depleted PBMC cultured a week with individual peptides, 10 µg/mL
# [5] = tested on: HLA-DR2 (DRA1*0101/I-Eα; DRB1*1501/I-Eβ) transgenic mice; details: representative IFN-γ ELISPOT data, CD8-depleted splenocytes of HLA-DR2 TgM
# [6] = tested on: HLA; details: HLA affinity (if known) described in the literature; ref column References of Table 4 (refs 15, 16, 18, 20, 21, 23-29, 74); cited from earlier work
Sequence,specificity for DR2 molecule by binding assay [1],TGM (HLA transgenic mice in which the peptide was immunogenic) [2],Binding assay (HLA to which affinity was found) [3],memory T-cell response (IFN-γ ELISPOT) in HLA-DR2 positive subjects [4],Transgenic mice DR2 (ELISPOT) [5],DENV3 Epitopes Reported: HLA affinity [6]
GKTVWFVPSIKAGND [NS3_357–371],confirmed,DR2,DR2,elicited T-cell response in one of the volunteers; also recorded: activated memory T-cells of at least one of the subjects analyzed,406+130 SFC per 1 million cells,
NREGKVVGLYGNGVV [NS3_141–155],,Negative,,,,NS3_141–155 ([…])/DRB1*1501
